From PubChem BioAssay AID771 (SRMLSC, 2007) come the findings set out here.

Structures are written as SMILES. Only a part is listed here, and it is no random draw. Calls of active or inactive are those of the source.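 Rule for the calls: active = growth inhibition above 90%, meaning viable cell count by imaging cut by more than 90% versus vehicle controls; inactive = growth inhibition below 90%.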

The experiment in a line: HT29 colon tumor cell growth inhibition, primary screen, imaging, high content imaging, 48 h, CellTiter-Glo (AID 771). The conditions noted are these: HCS imaging cell count, at 10 µM, stronger effect = higher value. A general note: ATP-based viability assays read luminescence as a measure of living cells.
For the molecule `Cc1cccc(OCC(=O)OC2CN3CCC2CC3)c1` (configuration not stated), the growth inhibition was inactive: 38.1%. Regarding `Cc1ccc(OCC(=O)OC2CN3CCC2CC3)cc1` (configuration not stated), the growth inhibition was inactive: -63.7%.
